Results published in article PMC7615311 (Science (New York, N.Y.), 2023).

How the values were obtained:
Type in all cases: cell-based, human
BT-474 cells = assay: decryptM phosphoproteome profiling in BT-474 cells
SK-BR-3 cells = assay: decryptM phosphoproteome profiling in SK-BR-3 cells
MDA-MB-175 cells = assay: decryptM phosphoproteome profiling in MDA-MB-175 cells

Measured: impact on the cellular phosphoproteome

trastuzumab: breast cancer therapeutic antibody presumed to block signaling by preventing HER2 dimerization
no potent impact: BT-474 cells | SK-BR-3 cells | MDA-MB-175 cells
